Measurements taken from BindingDB's records for patent US10123984.

Molecular target: Neprilysin (Homo sapiens, UniProt P08473)
Assay: Enzyme NEP Inhibition Assay

O=C(O)C(=O)N[C@H](Cc1ccc(-c2ccccc2)cc1)C[C@@H](CO)C(=O)O [US10123984, Example 6A]
Ki: < 1 nM
